“Also recorded” adds a separate entry of the source.
Tests used:
K562 cells = test: Proliferation inhibition assay (WST-1); format: cell-based; conditions: Homo sapiens, K562, read-out: IC50, proliferation inhibition
Description: The HEL, SET2 and K562 human cell lines were purchased from the German Collection of Microorganisms and Cell Cultures (DSMZ, Braunschweig, Germany). Murine BaF/3 and BaF/3-EPOR cells expressing JAK2 wild-type (wt) or JAK2V617F were donated by R. Skoda (Basel, Switzerland).

HEL cells = test: Cell cycle distribution analysis by flow cytometry; format: cell-based, human
SET2 cells [1] = test: Apoptosis by Annexin V flow cytometry; format: cell-based, human
Description: Results are expressed ad percent viable cells compared to control wells containing vehicle (DMSO) only. The fraction of necrotic cells was identified as the double-positive Annexin V/propidium iodide cells. One representative of three similar experiments. *, P<0.05; **, P<0.01.

SET2 cells [2] = test: Cell cycle distribution analysis by flow cytometry; format: cell-based, human
[3] = test system: JAK2, STAT5, and 4EBP1 in SET2 cells; test: Western blot of mTOR and JAK/STAT signaling; format: cell-based, human
Protocol: Cells were resuspended in RIPA lysis buffer (50 mM pH 7.4 Tris-HCl, 150 mM NaCl, 1% NP-40, 1 mMEDTA) containing a proteinase inhibitor cocktail (Halt Protease Inhibitor Cocktail Kit, PIERCE, Rockford, Ill., US) and subjected to sodium dodecyl sulphate polyacrylamide gel electrophoresis separation and western blotting onto Immunoblot PVDF membrane (BioRad, Hercules, Calif., US), according to standard protocols.
SET2 cells were incubated for 24 h with increasing concentrations of the drugs, and the level of total and phosphorylated JAK2, STAT5, and 4EBP1 was analyzed by western blot. Tubulin was used for loading normalization. The results shown are representative of two to four similar experiments for the different drugs.

Row | SMILES | IC50 (K562 cells) | cell cycle effect (HEL cells) | cell apoptosis (Annexin V-positive cells) (SET2 cells [1]) | cell cycle effect (SET2 cells [2]) | phosphorylated JAK2 [3] | phosphorylation of 4E-BP1 [3] | phosphorylation of STAT5 [3] | total JAK2 [3]
1 | N#CC[C@H](C1CCCC1)n1cc(-c2ncnc3[nH]ccc23)cn1 [Compound A, (3R)-3-cyclopentyl-3-[4-(7H-pyrrolo[2,3-d]pyrimidin-4-yl)-1H-pyrazol-1-yl]propanenitrile] | > 20 µM |  |  |  |  |  |  | 
2 | CC(C)n1nc(-c2cc3cc(O)ccc3[nH]2)c2c(N)ncnc21 [PP242, 2-(4-amino-1-isopropyl-1H-pyrazolo[3,4-d]pyrimidin-3-yl)-1H-indol-5-ol] |  | cell cycle arrest of SET2 and HEL cells in the G0/G1 phase | modest, yet dose-dependent, cell apoptosis at highest concentrations; also recorded: some cell apoptosis as highest concentrations | cell cycle arrest of SET2 and HEL cells in the G0/G1 phase | unaffected | dose-dependently reduced phosphorylation; also recorded: inhibited the phosphorylation | dose-dependently reduced phosphorylation; also recorded: appreciable decrease of STAT5 phosphorylation | unaffected
